Data reported in US6673802B2, “Compounds specific to adenosine A3 receptor and uses thereof” (OSI Pharmaceuticals, Inc., priority 2000, dated 2004).

Protein sequences, listed by entry. Tags and fused reporters are not part of them.
UniProt P30542, whole entry: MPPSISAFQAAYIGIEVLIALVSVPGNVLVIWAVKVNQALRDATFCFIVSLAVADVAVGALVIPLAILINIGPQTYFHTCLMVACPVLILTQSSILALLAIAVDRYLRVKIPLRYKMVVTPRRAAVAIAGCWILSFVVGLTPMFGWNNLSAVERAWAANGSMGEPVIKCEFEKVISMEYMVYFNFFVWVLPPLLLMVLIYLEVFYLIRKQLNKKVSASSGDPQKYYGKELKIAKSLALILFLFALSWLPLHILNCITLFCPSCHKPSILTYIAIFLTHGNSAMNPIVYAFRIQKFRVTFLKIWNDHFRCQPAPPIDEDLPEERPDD

Biological target: A1 adenosine receptor (Homo sapiens, UniProt P30542)
Assay: fus1-LacZ β-galactosidase assay in yeast expressing human A1 adenosine receptor
Details: NECA concentration of 10^−8 M

Compound: CCNC(=O)[C@H]1O[C@@H](n2cnc3c(N)ncnc32)[C@H](O)[C@@H]1O
- stimulation of β-galactosidase activity: approximately 2 fold
